# Earlier results in PubChem BioAssay AID1811 (Shanghai Institute of Organic Chemistry, 2009).
# The other results are listed elsewhere or left out. Calls of active or inactive are those of the source. Unless stated, no cut-off for active and inactive is given here.
# Test system: flavodoxin
# Assay: PubChem AID 1811
# Conditions: PDB complex binding affinities from literature
smiles,measurement,value
Cc1cc2c(cc1C)N(C[C@H](O)[C@H](O)[C@H](O)COP(=O)(O)O)c1[nH]c(=O)[nH]c(=O)c1N2,outcome,active
